Assay: Inhibition of platelet aggregation using Adenosine diphosphate (ADP) as activating agent in rabbit platelet rich plasma (PRP)

Work on `O=c1[nH]c2cc3cc(OCCO)ccc3nc2[nH]1` yielded an EC50 of 0.02 µM.

Source: BindingDB's records for doi:10.1021/jm00092a019 (Bristol-Myers Squibb Pharmaceutical Research Institute, 1992)
